The data set deals with Nc1ncnc2c1ncn2[C@@H]1O[C@H](COP(=O)(O)OP(=O)(O)OP(=O)(O)O)[C@@H](O)[C@H]1O. Briefly: purified protein. Particulars: co-substrate peptide AAVHEYLSA, ATP varied, 50 mM HEPES pH 7.5, 150 mM NaCl, 4 mM MgCl2, 0.01% Triton X-100, 1% DMSO, ambient temperature.

Usually Km stands for the substrate concentration at which the rate is half of its maximum. In general, Vmax refers to the rate approached at saturating substrate. The kcat is the number of substrate molecules converted per active site and unit of time at saturation. The term kcat/Km denotes the turnover number divided by the Michaelis constant. As to “BceF kinase domain (Burkholderia cepacia)”, the Km turned out to be 123.06 ± 13.78 µM, the Vmax was 0.183 µM/min, the kcat was found to be 0.000902 s⁻¹ and the kcat/Km is 6.67 M⁻¹ s⁻¹.

The values above are taken from publication PMC8394532, “Structural and Functional Insights into the Biofilm-Associated BceF Tyrosine Kinase Domain from Burkholderia cepacia” (Biomolecules, 2021).
